# Publication PMC4007584 (Journal of biomolecular screening, 2013)
# Sequences of proteins named here, by UniProt entry; tags and fusion partners are left off. Residues count along the entry.
# UniProt Q9Y233, 715-1055 limits assumed: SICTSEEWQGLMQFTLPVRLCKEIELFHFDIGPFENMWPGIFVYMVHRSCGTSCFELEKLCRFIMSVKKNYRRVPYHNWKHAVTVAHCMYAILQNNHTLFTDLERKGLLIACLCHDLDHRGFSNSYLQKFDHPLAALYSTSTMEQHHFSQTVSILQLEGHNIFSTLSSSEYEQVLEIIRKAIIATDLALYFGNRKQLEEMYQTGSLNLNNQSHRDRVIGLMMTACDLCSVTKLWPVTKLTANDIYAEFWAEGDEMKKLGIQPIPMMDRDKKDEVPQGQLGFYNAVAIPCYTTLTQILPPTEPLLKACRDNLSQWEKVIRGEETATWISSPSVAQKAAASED
# Target: catalytic domain of PDE10A2 (Homo sapiens, UniProt Q9Y233)
# Test: PDE10A calorimetric activity assay
# Format: biochemical
smiles,measurement,value
"COc1ccc(Cc2nccc3cc(OC)c(OC)cc23)cc1OC [Papaverine, papaverine hydrochloride]",Ki,1000 ± 140 nM

# Where a name gives a salt, the structure may show the parent alone.
